Data on one compound can be found in paper PMC10014601, “The cyclic peptide G4CP2 enables the modulation of galactose metabolism in yeast by interfering with GAL4 transcriptional activity” (Frontiers in Molecular Biosciences, 2023).

SMILES strings stand for the structures.

A short description of the data set: PAMPA-BBB passive membrane permeability. The conditions noted are these: PAMPA-BBB validation; porcine brain lipid in dodecane (20 mg/L); PBS/DMSO 95:5 pH 7.4; 40–100 μM donor; 18 h, 25°C; UV-vis; mean ± SD, four wells, three runs. Background: The PAMPA barrier holds no transporters, so it reflects passive diffusion.

Regarding `NCCc1ccc(O)c(O)c1` [Dopamine], the “Pe,exp” value is reported as 0.22 ± 0.04 10-6 cm/s.
